## scFv variants of Ab-14 (light chain) against a SARS-CoV-2 spike peptide

The measurements come from Li et al. 2023 (doi:10.1038/s41467-023-39022-2) through the FLAb antibody collection.

Target: peptide PDVDLGDISGINAS, taken from heptad repeat 2 (HR2) of SARS-CoV-2 spike.

Parent: Ab-14, a human scFv built as VH, three GGGGS repeats, VL. Only the CDRs of the light chain vary.
VH: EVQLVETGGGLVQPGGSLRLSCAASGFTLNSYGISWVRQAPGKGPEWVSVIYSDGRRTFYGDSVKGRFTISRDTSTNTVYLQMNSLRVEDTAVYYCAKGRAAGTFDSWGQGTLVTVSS
VL: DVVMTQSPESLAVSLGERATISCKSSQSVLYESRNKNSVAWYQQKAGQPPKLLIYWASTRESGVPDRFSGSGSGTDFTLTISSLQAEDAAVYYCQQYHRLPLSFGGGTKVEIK

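Phage display of a naive human antibody library on the peptide gave the parent. This is the validation round: designs drawn from the data on random variants, tested in the same kind of assay. Their group label is 14L_GP_Gibbs (GP: Gaussian process model; Gibbs: Gibbs sampling; a sequence that several methods proposed may carry one label only). Affinity was read by AlphaSeq, a pooled yeast mating assay with surface-displayed partners. Binding brings cells together so that they mate, and sequencing counts the barcode pairs among the diploids. Each replicate has its own calibration line, from reference interactions of the BCL2 family. There are six technical replicates.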

The parent's light chain CDRs are KSSQSVLYESRNKNSVA, WASTRES, QQYHRLPLS; each variant's own CDRs replace them letter for letter. Numbers give log10(Kd / nM), so 0 is 1 nM and 3 is 1 µM. Smaller is tighter. An entry "ND" has no value in the source: the pair was not observed among the diploids in that replicate. This suggests poor binding but is not conclusive.

CDR-L1 | CDR-L2 | CDR-L3 | log10 Kd (nM) by replicate | control signals
KMSGSDMMLSRNWNSVA | QASTREQ | QQYHRLPLS | 0.79 0.52 0.41 0.47 0.45 0.44 | 0/18
KIQQSVQYESRNKNSVA | NASDRFS | QQYHRLPLS | 0.63 0.25 0.25 0.18 0.33 0.75 | 0/18
VLQQSELYESRNKNSVA | DASTREE | QQYHRLPLS | 0.40 0.30 0.14 0.03 0.01 0.29 | 0/18
KLPNSQEYESRWKNSVA | NASTREL | QQYHRLPLS | 1.00 0.96 1.00 1.09 1.10 1.27 | 1/18 (2.92)
KMSQSDEYESRQFNSVA | NASTRMM | QQYHRLPLS | 0.21 0.03 -0.01 -0.10 0.10 0.11 | 1/18 (2.99)
KVVQSVDYEPRNKQSVA | DASTRCS | QQYHRLPLS | 0.05 -0.05 0.00 -0.08 -0.04 0.20 | 1/18 (2.18)
KLSMSWLYESRNWNSVA | NASLRES | QDYHRLPLS | 0.79 0.66 0.64 0.46 0.45 0.83 | 1/18 (2.66)
ILDQSQLYESRNKNAVA | NASTREM | QQYHRLPLS | -0.01 -0.09 -0.11 -0.24 -0.09 -0.04 | 0/18
KLSGSMLYEWRNCNNVA | NASQREV | QQYHRLPLS | -0.02 0.08 0.12 0.01 0.00 0.13 | 0/18
KVSMSDQYEARNKNSVA | EASTRED | QQYHRLPLS | 0.75 -0.27 0.89 -0.11 1.08 0.43 | 1/18 (0.74)
KLYQSEGYESRNDNNVA | NASLRES | QQYHRLPLS | -0.18 -0.18 -0.17 -0.46 -0.37 -0.27 | 2/18 (3.59)
KVDQSNLCEQRNKNSVA | SASLRFS | QQYHRLPLS | ND 2.00 ND ND ND ND | 0/18
KIEQSVLQEDRNKNSVA | NASQRES | QAYHRLPLS | 0.61 0.23 0.30 0.14 0.23 0.63 | 2/18 (2.14)
KLSQSVEYESRDKNAVA | DASTRMS | QQYHRLPLS | -0.04 -0.16 -0.26 -0.33 -0.24 -0.06 | 2/18 (2.52)
KLQTSWGYEKRNKNSVA | QASQRES | QQYHRLPLS | 1.12 1.61 0.56 0.96 1.10 1.66 | 0/18
KVSWSWLYESRVWNSVA | NASLRES | QQYHRLPLS | 1.13 0.77 0.71 0.46 0.65 1.07 | 0/18
KLSQSQGGLQRNKNSVA | EASTREM | QQYHRLPLS | 0.39 0.34 0.09 0.39 0.32 0.08 | 0/18
KLSQSEPYESRNKNSVA | NASYRMS | QQYHRLPLS | -0.33 -0.34 -0.57 -0.49 -0.52 -0.41 | 0/18
KLSMLHDYESRNKNSVA | QASTRES | QDYHRLPLS | 0.81 ND 0.84 0.86 0.58 1.00 | 0/18
KLQMSVMMESRWCNSVA | SASTREE | QQYHRLPLS | 1.06 1.20 1.10 0.67 0.71 1.06 | 2/18 (1.90)
KMSQSVLMEMRNGNSVA | NASTREE | QQYHRLPLS | -0.03 -0.15 -0.29 -0.12 -0.34 -0.04 | 0/18
KLSQSDCYEDRNLNNVA | NASQRES | QQYHRLPLM | -0.04 -0.03 -0.03 0.00 0.05 0.09 | 3/18 (2.74)
KLSMSEWMESRNKNSVA | SANTREE | QQYHRLPLS | -0.24 -0.16 -0.49 -0.43 -0.47 -0.36 | 1/18 (3.07)
KMSQSVLMGGRNDNSVA | EASTRCD | QQYHRLPLS | 0.29 0.10 -0.01 -0.05 -0.03 0.08 | 1/18 (2.23)
KLMTSDLYESRNVNSVA | EASTRMD | QQYHRLPLS | 0.16 0.07 -0.09 -0.03 -0.14 0.11 | 2/18 (3.27)
KLMGSMLYEQRMKNSVA | QASQRMS | QDYHRLPLS | 0.43 0.43 0.36 0.15 0.59 0.62 | 0/18
KVSPSTWYESRNKNAVA | HASQRES | QQYHRLPLQ | -0.04 -0.42 -0.49 0.01 -0.34 -0.35 | 0/18
KLSQSVMGGSRNKWSVA | NASQREQ | QQYHRLPLS | 0.84 1.24 1.00 0.98 0.96 1.24 | 1/18 (4.46)
KLQQQNLYESRNKNNVA | EATQREQ | QQYHRLPLS | 0.00 1.08 0.03 0.08 -0.26 0.40 | 0/18
KLMTSHLYESRMANNVA | AASTREE | QQYHRLPLS | 0.26 0.25 0.05 -0.26 -0.07 0.14 | 0/18
KLEQSTLYEERMCNSVA | NASQRES | QQYHRLPLS | 0.36 0.24 0.51 -0.07 0.09 0.29 | 0/18
KEPQSHDYESRNKNSVA | NASERES | QQYHRLPLS | 0.26 -0.04 0.17 -0.24 -0.11 0.11 | 2/18 (2.60)
KLSQSVLMGDRNKSSVA | QASTREM | QQYHRLPLS | 0.75 0.59 1.15 0.49 0.28 0.51 | 0/18
KLPQSQEYESRWKNSVA | EASTREL | QQYHRLPLS | 0.49 0.18 0.82 0.05 0.11 0.45 | 0/18
KLSQSKGGESRNPNSVA | HASTRER | QQYHRLPLS | 0.36 0.12 0.11 0.13 0.04 0.54 | 0/18
KCAQGWLYESRNKNAVA | NASQREH | QQYHRLPLS | 0.04 -0.16 -0.02 -0.23 -0.23 0.05 | 0/18
KVQQSMEYESRNKNSVA | EASDRES | QDYHRLPLF | 1.23 1.84 1.22 1.31 1.20 1.13 | 0/18

Of ten entries with the parent sequence, four were seen in most replicates (averages 0.34 to 2.37), three in one and three in none, so single entries are noisy. Background: pairings of all light chain designs with three empty control strains gave a value in 4% of cases (median 2.64, 5th percentile 1.59). Values in that range, when seen in few replicates, are hard to tell from nonspecific mating. Also given: how often the same scFv was detected with the empty control strains, with their mean in brackets. The authors averaged sequences with at least three values out of six and counted those with two or fewer as poor binders. The range of this assay differs from that of the first round, and the authors advise against merging the two.